Source: ChEMBL document CHEMBL1122516, “Structure-activity relationships for reactivators of organophosphorus-inhibited acetylcholinesterase: quaternary salts of 2-[(hydroxyimino)methyl]imidazole” (1984)

Assays:
[1] = Biomolecular rate constant for reactivation and measure of the inherent reactivity of the oximate form of the reactivator at the concentration 10 uM [HOX] in the conditions of 25degreeC,pH 7.6; details: pH 7.6, 10 µM
[2] = Partition coefficient (logP); details: octanol/water
[3] = Effective biomolecular rate constant at the concentration 10 uM [HOX] in the conditions of 25degreeC,pH 7.6; details: pH 7.6, 10 µM
[4] = Reactivation rate constant with respect to oxmiate concentration (1/OX (1/uM) =0.382)
[5] = Reactivation rate constant with respect to enzyme(AChE) inhibition
[6] = pKa value of the compound
Homo sapiens = species: Homo sapiens; assay: Concentration of the HOX that inhibits 50% of AChE (Acetylcholinesterase) activity
[7] = Reactivation rate constant with respect to oxmiate concentration (1/OX (1/uM) =0.049)
[8] = Biomolecular rate constant for reactivation and measure of the inherent reactivity of the oximate form of the reactivator at the concentration 30 uM [HOX] in the conditions of 25degreeC,pH 7.6; details: pH 7.6, 30 µM
[9] = Effective biomolecular rate constant at the concentration 30 uM [HOX] in the conditions of 25degreeC,pH 7.6; details: pH 7.6, 30 µM
[10] = Reactivation rate constant with respect to oxmiate concentration (1/OX (1/uM) =0.345)
Anguilliformes = assay: The compound was tested for % of maximum reactivation for GD-inhibited Eel AChE (Acetylcholinesterase) by oximes
[11] = Reactivation rate constant with respect to oxmiate concentration (1/OX (1/uM) =0.141)
[12] = Reactivation rate constant with respect to oxmiate concentration (1/OX (1/uM) =0.313)
[13] = Reactivation rate constant with respect to oxmiate concentration (1/OX (1/uM) =0.125)
[14] = Reactivation rate constant with respect to oxmiate concentration (1/OX (1/uM) =0.115)
[15] = Reactivation rate constant with respect to oxmiate concentration (1/OX (1/uM) =0.119)
[16] = Reactivation rate constant with respect to oxmiate concentration (1/OX (1/uM) =0.318)
[17] = Reactivation rate constant with respect to oxmiate concentration (1/OX (1/uM) =0.357)

In the case of `Cn1cc[n+](COCCCc2ccccc2)c1/C=N/O.[Cl-]`, the kOX [1] is reported as 0.00014 M⁻¹ s⁻¹, the logP [2] is reported as -0.45 and the kHOX [3] is reported as 3.67e-05 M⁻¹ s⁻¹. For the same compound, the kr [4] was 3290 min⁻¹, the Kr [5] was 391000 M and the pKa [6] was 8.05.
Work on `Cn1cc[n+](COCc2cccc3ccccc23)c1/C=N/O` yielded an IC50 (Homo sapiens) of 7 µM.
`Cl.NC(=O)c1cc[n+](COCN2C=CC=CC2=CN=O)cc1.[Cl-]` showed a Kr [5] of 3.38e+07 M, a kr [7] of 20600 min⁻¹ and a kOX [8] of 1.02e-05 M⁻¹ s⁻¹. The kHOX [9] was 6.83e-06 M⁻¹ s⁻¹.
For `Cn1cc[n+](COCc2ccccc2)c1/C=N/O`, the IC50 (Homo sapiens) was 50 µM.
Compound `C[n+]1ccccc1/C=N/O.[Cl-]` has a kOX [1] of 0.00016 M⁻¹ s⁻¹, a kHOX [3] of 4.5e-05 M⁻¹ s⁻¹ and a Kr [5] of 3.74e+06 M. It also gave a kr [10] of 36000 min⁻¹ and an Rmax (Anguilliformes) of 23.3%.
Work on `NC(=O)c1cc[n+](COC[n+]2ccccc2/C=N/O)cc1.[Cl-].[Cl-]` yielded an Rmax (Anguilliformes) of 48.7%.
In the case of `Cn1cc[n+](COCc2cccc3ccccc23)c1/C=N/O.[Cl-]`, the logP [2] is reported as -0.36, the Kr [5] is reported as 835000 M and the kOX [8] is reported as 0.000122 M⁻¹ s⁻¹. The kHOX [9] was 2.83e-05 M⁻¹ s⁻¹ and the kr [11] was 6100 min⁻¹.
`Cn1cc[n+](COCCCc2ccccc2)c1/C=N/O` showed an IC50 (Homo sapiens) of 15 µM.
`CC(C)OC[n+]1ccn(C)c1/C=N/O.[Cl-]` showed a kOX [1] of 2.67e-05 M⁻¹ s⁻¹, a logP [2] of -3 and a kr [12] of 12100 min⁻¹. For the same compound, the kHOX [3] was 8.67e-06 M⁻¹ s⁻¹ and the Kr [5] was 7.46e+06 M.
`Cn1cc[n+](COCC(C)(C)C)c1/C=N/O.[Cl-]` gave a logP [2] of -0.91, a Kr [5] of 8.32e+06 M and a kOX [8] of 3.33e-05 M⁻¹ s⁻¹. The kr [13] was 16800 min⁻¹ and the kHOX [9] was 9e-06 M⁻¹ s⁻¹.
Compound `CC(C)OC[n+]1ccn(C)c1/C=N/O` has an IC50 (Homo sapiens) of 80 µM.
`CCCCOC[n+]1ccn(C)c1/C=N/O.[Cl-]` gave a logP [2] of -1.39, a Kr [5] of 1.99e+06 M and a kOX [8] of 6.33e-05 M⁻¹ s⁻¹. For the same compound, the kr [13] was 7580 min⁻¹ and the kHOX [9] was 1.67e-05 M⁻¹ s⁻¹.
Work on `COC[n+]1ccn(C)c1/C=N/O.[Cl-]` yielded a logP [2] of -3, a Kr [5] of 7.86e+06 M and a kOX [8] of 0.000127 M⁻¹ s⁻¹. For the same compound, the kr [14] was 59400 min⁻¹, the kHOX [9] was 3.67e-05 M⁻¹ s⁻¹ and the pKa [6] was 7.96.
With `Cn1cc[n+](COCC(C)(C)C)c1/C=N/O` the IC50 (Homo sapiens) was 12 µM.
`CC(OC[n+]1ccn(C)c1/C=N/O)C(C)(C)C.[Cl-]` (stereo not given) gave a logP [2] of -0.68, a kr [15] of 4720 min⁻¹ and a Kr [5] of 5.66e+06 M. The kOX [8] was 1.38e-05 M⁻¹ s⁻¹ and the kHOX [9] was 3.83e-06 M⁻¹ s⁻¹.
`CC(OC[n+]1ccn(C)c1/C=N/O)C(C)(C)C` (stereo not given) showed an IC50 (Homo sapiens) of 16 µM.
`Cn1cc[n+](COCc2ccccc2)c1/C=N/O.[Cl-]` gave a kOX [1] of 0.000137 M⁻¹ s⁻¹, a logP [2] of -1.3 and a kHOX [3] of 4.33e-05 M⁻¹ s⁻¹. The kr [16] was 29000 min⁻¹ and the Kr [5] was 3.51e+06 M.
Compound `CCCCCCCCOC[n+]1ccn(C)c1/C=N/O.[Cl-]` has a kOX [1] of 0.000163 M⁻¹ s⁻¹, a logP [2] of 0.88 and a kHOX [3] of 4.67e-05 M⁻¹ s⁻¹. The Kr [5] was 336000 M and the kr [17] was 3290 min⁻¹.
`CCCCCCCCOC[n+]1ccn(C)c1/C=N/O` gave an IC50 (Homo sapiens) of 7 µM.
`CCCCOC[n+]1ccn(C)c1/C=N/O` showed an IC50 (Homo sapiens) of 20 µM.
